## Apparent affinities of Ab-14 variants for a coronavirus HR2 peptide

Source: Engelhart et al. 2022 (doi:10.1038/s41597-022-01779-4), MIT Lincoln Laboratory and A-Alpha Bio; data file from the FLAb repository.

Antigen: PDVDLGDISGINAS, a 14-residue peptide of the SARS-CoV-2 spike HR2 region.

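Phage display of a naive human antibody library on the peptide gave the parent. AAYL49 was designed without a model: most single CDR substitutions and a random sample of double and triple ones. The scFvs were displayed on barcoded MATa yeast, the peptide on MATalpha yeast. Binding brings cells together so that they mate, and sequencing counts the barcode pairs among the diploids. Scores were corrected for input abundance and mapped to Kd with protein pairs of known affinity run in the same pool. Mating was done three times.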

Parent scFv Ab-14: VH joined to VL by a 15-residue (Gly4Ser)3 linker. Changes lie in the heavy chain CDRs alone.
VH: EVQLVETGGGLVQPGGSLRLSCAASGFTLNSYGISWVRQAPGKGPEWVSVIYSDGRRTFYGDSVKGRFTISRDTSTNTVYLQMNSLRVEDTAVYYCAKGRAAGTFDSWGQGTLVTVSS
VL: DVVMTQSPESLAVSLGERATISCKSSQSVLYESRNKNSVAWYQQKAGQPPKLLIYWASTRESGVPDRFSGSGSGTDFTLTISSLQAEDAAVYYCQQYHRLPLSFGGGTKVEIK

Positions count from residue 1 of the parent VH; Y60C puts C in place of Y.
All variants listed here change Y60 of the VH, counted from its first residue.
Numbers give log10(Kd / nM), so 0 is 1 nM and 3 is 1 µM. Smaller is tighter.
Replicates are averaged; those with no signal do not enter the mean.
"no signal" means that the variant was in the library but no mating with the target was seen in any replicate; the authors take this as a sign of poor binding, and no number exists.
The list is sorted by this average, lowest first, undetected variants last.

With Y60C D62W G103D the result was 2.59 (1 of 3 replicates; controls 1 of 9). Variant Y60T G61A K65D gave 2.71 (3 of 3 replicates; controls 5 of 9). Variant Y60L gave 2.94 (3 of 3 replicates; controls 7 of 9). Variant G33F I51Y Y60G showed 3.32 (1 of 3 replicates; controls 0 of 9). For Y60Q G99C D106V, the assay gave 3.41 (2 of 3 replicates; controls 3 of 9). For Y60W G103T, the assay gave 3.44 (1 of 3 replicates; controls 7 of 9). With Y32W Y60F A101M the result was 3.58 (2 of 3 replicates; controls 3 of 9). With S31G Y60W A101W the result was 3.62 (1 of 3 replicates; controls 0 of 9). For R57L Y60M G61R, the assay gave 3.85 (1 of 3 replicates; controls 4 of 9).

With Y60P V64D S107P the result was 4.10 (1 of 3 replicates; controls 2 of 9). Variant Y60C G99W gave 4.38 (1 of 3 replicates; controls 2 of 9). For T58R Y60Q, the assay gave 4.55 (1 of 3 replicates; controls 1 of 9). Variant V50G G55I Y60W showed 4.56 (1 of 3 replicates; controls 0 of 9). Variant Y60G V64S D106T showed 4.63 (2 of 3 replicates; controls 5 of 9). With I51G Y60S S107D the result was 4.71 (1 of 3 replicates; controls 4 of 9). Variant S53T Y60F G99L gave 4.72 (1 of 3 replicates; controls 0 of 9). For Y60I G61V S63V, the assay gave 5.37 (1 of 3 replicates; controls 1 of 9). For F27L Y60R, the assay gave 5.51 (1 of 3 replicates; controls 1 of 9).

For Y60V V64N K65N, the assay gave no signal (0 of 3 replicates; controls 1 of 9). Variant S31Y D54Y Y60M gave no signal (0 of 3 replicates; controls 0 of 9). Variant I34T Y52K Y60N showed no signal (0 of 3 replicates; controls 2 of 9). Variant Y52K Y60E R100H gave no signal (0 of 3 replicates; controls 1 of 9). With N30P Y60W S63G the result was no signal (0 of 3 replicates; controls 1 of 9). For Y60M T104C, the assay gave no signal (0 of 3 replicates; controls 2 of 9). Variant Y52H Y60N K65G gave no signal (0 of 3 replicates; controls 4 of 9). Variant N30R G33F Y60W gave no signal (0 of 3 replicates; controls 1 of 9). Variant G33H D54E Y60E showed no signal (0 of 3 replicates; controls 0 of 9).

For G33Y Y60N F105K, the assay gave no signal (0 of 3 replicates; controls 5 of 9). Variant Y60E V64G R100W showed no signal (0 of 3 replicates; controls 0 of 9). For Y60T G99D T104Q, the assay gave no signal (0 of 3 replicates; controls 1 of 9).

The first 4 entries again:

| changes | log10 Kd (nM), mean | replicates with signal | empty controls |
|---|---|---|---|
| Y60C D62W G103D | 2.59 | 1 of 3 | 1 of 9 |
| Y60T G61A K65D | 2.71 | 3 of 3 | 5 of 9 |
| Y60L | 2.94 | 3 of 3 | 7 of 9 |
| G33F I51Y Y60G | 3.32 | 1 of 3 | 0 of 9 |

Empty control strains, which show no peptide, gave a signal in 15% of pairings with library AAYL49; the median was 4.06 and 95% of these signals were weaker than 2.83. No background was subtracted. The control count says in how many pairings with the empty strains this scFv gave a signal.